# Test results from PubChem BioAssay AID2429 (National Center for Advancing Translational Sciences (NCATS), 2010).
# Protein sequences, listed by entry. Tags and fused reporters are not part of them. Lines headed by an entry give the natural chain unless they say otherwise; changes in a name come on top.
# UniProt P15428: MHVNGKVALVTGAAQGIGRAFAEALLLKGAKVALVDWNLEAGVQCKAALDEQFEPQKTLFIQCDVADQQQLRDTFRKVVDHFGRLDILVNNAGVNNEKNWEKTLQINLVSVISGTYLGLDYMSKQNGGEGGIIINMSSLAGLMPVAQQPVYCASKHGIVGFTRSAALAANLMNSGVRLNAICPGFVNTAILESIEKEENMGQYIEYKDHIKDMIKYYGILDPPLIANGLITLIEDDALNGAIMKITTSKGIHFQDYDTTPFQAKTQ
# The list shows a part of the results, in another mix than the full data. Calls of active or inactive are those of the source. Calls come from the whole dose curve.
# Biological target: 15-hydroxyprostaglandin dehydrogenase [NAD(+)] (Homo sapiens) (UniProt P15428)
# Experiment: Confirmation qHTS Assay for Inhibitors of HPGD (15-Hydroxyprostaglandin Dehydrogenase)
# Details: recombinant HPGD, NADH fluorescence, PGE2 substrate
# From the text: Assay Overview: Human 15-Hydroxyprostaglandin dehydrogenase (HPGD) catalyzes the inactivation of prostaglandin E2, and plays a major role in cancer biology by antagonizing the oncogenic potential of cyclooxygenase type 2 (COX2). Assays are available, based on absorbance/fluorescence increase of NADH with the substrate 15-OH prostaglandin E2. Inhibition of HPGD activity was screened by utilizing prostaglandin as an electron donor and NAD+ as an electron acceptor/cofactor. An increase in the fluorescence intensity due to conversion of NAD+ to NADH was used to measure the enzyme activity. This assay is a confirmation screen of primary qHTS protocol (See AID 894). References 1. Myung SJ, Rerko RM, Yan M, Platzer P, Guda K, Dotson A, Lawrence E, Dannenberg AJ, Lovgren AK, Luo G, Pretlow TP, Newman RA, Willis J, Dawson D, Markowitz SD. 15-Hydroxyprostaglandin dehydrogenase is an in vivo suppressor of colon tumorigenesis. Proc Natl Acad Sci U S A. 2006 Aug 8;103(32):12098-102. 2. […]
# Buffer: 50 mM Tris-HCl, 0.01% Tween 20, pH 8. […] The plates were immediately transferred to and read 5 times every 30 seconds on ViewLux High-throughput CCD imager (Perkin-Elmer) using 360 nm excitation and 450 nm emission fluorescence protocol. The fluorescence intensity difference between the last and the first time points was used to compute reaction progress.
smiles,measurement,value
N#Cc1ccccc1CSc1nc2ncc(Br)cc2[nH]1,Potency,active: 141 nM
